Values quoted from earlier work as cited in US20240197683A1 (JIANGSU UNIVERSITY, priority 2023, published 2024).
Structures can show the parent of a compound that is named as a salt.

Details: cited from earlier work

Q: Which Solubility does the source give for `C[N+](C)(C)[C@@H](Cc1c[nH]c(=S)[nH]1)C(=O)[O-]` [ergothioneine, (S)-α-Carboxy-N,N,N-trimethyl-2-mercapto-1H-imidazole-4-ethanaminium inner salt] here?
A: The Solubility was “soluble in water, methanol and ethanol”.
